Results: patent US20170291890A1 (Epizyme, Inc., priority 2014, published 2017)
pIC50: −log10 of the molar value. Where two headings read alike, the source gives them in different places.

Chains of the proteins cited; added tags and fusions are not shown. Residues count along the entry.
UniProt P29375, 1-1090 limits assumed: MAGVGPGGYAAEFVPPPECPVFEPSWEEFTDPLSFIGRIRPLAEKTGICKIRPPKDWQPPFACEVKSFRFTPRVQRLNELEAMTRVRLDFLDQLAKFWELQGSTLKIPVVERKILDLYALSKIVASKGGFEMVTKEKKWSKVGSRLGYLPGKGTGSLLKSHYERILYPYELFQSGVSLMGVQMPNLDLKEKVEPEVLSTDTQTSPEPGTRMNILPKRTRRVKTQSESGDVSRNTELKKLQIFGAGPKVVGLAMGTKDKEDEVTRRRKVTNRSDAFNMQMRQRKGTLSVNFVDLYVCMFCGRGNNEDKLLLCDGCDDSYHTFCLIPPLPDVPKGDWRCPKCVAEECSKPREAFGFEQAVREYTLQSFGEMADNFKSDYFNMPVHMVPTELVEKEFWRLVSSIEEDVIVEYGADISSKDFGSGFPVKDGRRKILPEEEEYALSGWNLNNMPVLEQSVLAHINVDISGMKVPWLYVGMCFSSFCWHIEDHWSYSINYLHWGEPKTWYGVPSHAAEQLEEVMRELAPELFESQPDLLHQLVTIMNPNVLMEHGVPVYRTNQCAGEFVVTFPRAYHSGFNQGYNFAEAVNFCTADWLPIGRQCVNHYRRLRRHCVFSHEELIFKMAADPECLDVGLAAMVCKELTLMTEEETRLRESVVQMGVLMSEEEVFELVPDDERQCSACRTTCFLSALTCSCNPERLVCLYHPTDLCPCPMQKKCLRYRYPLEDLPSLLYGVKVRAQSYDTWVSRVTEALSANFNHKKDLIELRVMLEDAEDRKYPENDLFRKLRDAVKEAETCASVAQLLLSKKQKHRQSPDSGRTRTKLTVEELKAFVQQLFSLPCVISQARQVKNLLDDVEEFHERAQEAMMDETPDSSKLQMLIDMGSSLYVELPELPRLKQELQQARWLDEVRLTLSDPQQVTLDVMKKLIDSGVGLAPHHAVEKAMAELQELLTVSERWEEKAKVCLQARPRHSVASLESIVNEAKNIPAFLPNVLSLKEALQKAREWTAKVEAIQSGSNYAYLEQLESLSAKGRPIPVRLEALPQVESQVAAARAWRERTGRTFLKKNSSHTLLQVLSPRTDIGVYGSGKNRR
UniProt Q9H3R0, 2-372 limits assumed: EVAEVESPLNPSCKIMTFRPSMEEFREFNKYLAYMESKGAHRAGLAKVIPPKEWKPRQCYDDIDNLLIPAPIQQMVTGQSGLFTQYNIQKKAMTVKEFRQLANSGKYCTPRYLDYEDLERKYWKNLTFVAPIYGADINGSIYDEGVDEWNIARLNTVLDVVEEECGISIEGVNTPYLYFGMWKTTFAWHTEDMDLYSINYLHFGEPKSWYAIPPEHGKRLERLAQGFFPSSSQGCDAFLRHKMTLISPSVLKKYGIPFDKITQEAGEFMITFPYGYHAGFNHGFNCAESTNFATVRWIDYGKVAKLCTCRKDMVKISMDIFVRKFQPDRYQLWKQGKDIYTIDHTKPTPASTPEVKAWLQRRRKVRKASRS
UniProt O75164, 1-350 limits assumed: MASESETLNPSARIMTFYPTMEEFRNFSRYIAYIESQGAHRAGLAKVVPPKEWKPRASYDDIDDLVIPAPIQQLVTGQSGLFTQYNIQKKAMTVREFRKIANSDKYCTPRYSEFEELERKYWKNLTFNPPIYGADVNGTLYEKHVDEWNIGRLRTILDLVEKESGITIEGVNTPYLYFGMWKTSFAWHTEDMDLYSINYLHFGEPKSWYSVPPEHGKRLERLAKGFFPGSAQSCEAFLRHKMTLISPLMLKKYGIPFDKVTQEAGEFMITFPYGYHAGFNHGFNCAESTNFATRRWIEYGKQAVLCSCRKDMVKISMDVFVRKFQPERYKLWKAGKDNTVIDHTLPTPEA

Experiments:
[1] = biological target: KDM5A (Homo sapiens, UniProt P29375); assay: KDM5A Assay (SAMDI mass spectrometry demethylase assay); details: read-out: 5A IC50, C-terminal FLAG-tagged KDM5A 1-1090
Method: (§1) C-terminal FLAG-tagged KDM5A^1-1090 was purchased from BPS Biosciences. Peptides were synthesized by BioPeptide and all other reagents were purchased from Sigma-Aldrich at the highest level of purity possible. Assays were performed in a 50 μL volume in 384-well V-bottom polypropylene microplates (Greiner) at 25° C. Optimized 1× assay buffer was 50 mM HEPES (pH=8.0), 100 μM sodium ascorbate, 20 mM NaCl, 10 μM ammonium iron sulfate, 1 mM tris(2-carboxyethyl)phosphine (TCEP), 0.002% Tween-20, and 0.005% BSG. For compound screening, 35 μL of KDM5A^1-109° (final concentration, f.c.=20 nM) was added using a Multidrop Combi and preincubated with 1 μL of test compound (f.c.=10 μM) for 30 minutes and subsequently 15 μL of peptide with the following sequence NH2-ART[Kme-3]QTARKSTGGKA[K-Ahx-Biot]-amide (f.c.=250 nM) and 2-oxoglutarate (f.c.=15 μM) was added by Multidrop Combi to begin the reaction. Reactions proceeded for 150 minutes and were stopped by the addition of 5 μL of formic acid (f.c.=0.5%) using a Multidrop Combi and then analyzed by SAMDI Tech Inc.
(§2) SAMDI Tech analyzed all reactions using self-assembled monoloayer desorption/ionization technology as previously described (Gerard-Levin Z A, Scholle M D, Eisenberg A H, et al.: High-throughput screening of small molecule libraries using SAMDI mass spectrometry. ACS Comb Sci 2011; 13:347-350). Briefly, a 2 μL sample of the stopped demethylase reactions were transferred to a SAMDI array coated with 384 biotin-neutravidin spots using a 384-channel pipet station. The SAMDI arrays were incubated for 1 h in a humidified chamber, followed by washing of the surface with deionized ultra-filtered water (DIUF) and drying under nitrogen. A matrix of 30 mg/ml 2′,4′,6′-Trihydroxyacetophenone monohydrate (THAP) in acetone was applied using a TPP Mosquito 1.2 μL tip by dispensing 50 nL on each of the 384 spots on the array. SAMDI-MS was run using acquisition method ReflectorPositiveUTX. The % conversion of substrate to product was calculated using the AUC of the substrate and product peptide peaks.
(§3) An IC50 value was determined by contacting various concentrations of a test compound with one of the KDM4A, KDM4C or KDMSC enzyme constructs and plotting a dose-response curve which associates the amount of inhibition of the enzyme relative to the concentration of the test compound. From the curve, the IC50 value (which represents the concentration of the test compound necessary to inhibit maximal enzymatic activity by 50%) was determined. Additionally, the slope of the linear range of the plotted curve, which indicates the speed with which the curve rises between the minimum and maximum, was calculated.

[2] = biological target: KDM4C (Homo sapiens, UniProt Q9H3R0); assay: KDM4C Assay (SAMDI mass spectrometry demethylase assay); details: read-out: 4C IC50, N-terminal GST-tagged KDM4C 2-372
Method: as §1, with “N-terminal GST-tagged KDM4C^2-372” for “C-terminal FLAG-tagged KDM5A^1-1090”, “KDM4C^2-372” for “KDM5A^1-109°”, “f.c.=5” for “f.c.=20”, “NH2-ARTKQTAR(Kme3)STGGKAPRKQLA(K-Ahx-Biotin)-amide (f.c.=500” for “NH2-ART[Kme-3]QTARKSTGGKA[K-Ahx-Biot]-amide (f.c.=250”
as §2, §3

[3] = biological target: KDM4A (Homo sapiens, UniProt O75164); assay: KDM4A Assay (SAMDI mass spectrometry demethylase assay); details: read-out: 4A IC50; N-terminal His-tagged KDM4A 1-350; class symbols
Method: N-terminal His-tagged KDM4A^1-350 was purchased from BPS Biosciences. Peptides were synthesized by BioPeptide and all other reagents were purchased from Sigma-Aldrich at the highest level of purity possible. Assays were performed in a 50 μL volume in 384-well V-bottom polypropylene microplates (Greiner) at 25° C. Optimized 1× assay buffer was 50 mM HEPES (pH=8.0), 100 μM sodium ascorbate, 20 mM NaCl, 10 μM ammonium iron sulfate, 1 mM tris(2-carboxyethyl)phosphine (TCEP), 0.002% Tween-20, and 0.005% BSG. […] Reactions proceeded for 120 minutes and were stopped by the addition of 5 μL of formic acid (f.c.=0.5%) using a Multidrop Combi and then analyzed by SAMDI Tech Inc.
SAMDI Tech analyzed all reactions using self-assembled monoloayer desorption/ionization technology as previously described (Gerard-Levin Z A, Scholle M D, Eisenberg A H, et al.: High-throughput screening of small molecule libraries using SAMDI mass spectrometry. ACS Comb Sci 2011; 13:347-350). […] The % conversion of substrate to product was calculated using the AUC of the substrate and product peptide peaks.
An IC50 value was determined by contacting various concentrations of a test compound with one of the KDM4A, KDM4C or KDMSC enzyme constructs and plotting a dose-response curve which associates the amount of inhibition of the enzyme relative to the concentration of the test compound. […]

| SMILES | pIC50 ([1]; class symbols) | pIC50 ([2]; numeric bound) | pIC50 ([1]; numeric bound) | pIC50 ([2]; class symbols) | pIC50 [3] |
| --- | --- | --- | --- | --- | --- |
| N[C@H]1CC[C@@H](n2ncc(-c3ccccc3)c2Nc2cnccc2C(=O)O)CC1 (relative stereo) | 5.00 to 6.00 | < 4.00 |  |  |  |
| O=C(O)c1ccncc1Nc1c(-c2ccccc2)cnn1C1CCCNC1 (stereo not drawn) |  | < 4.00 | < 4.00 |  |  |
| CCN1CCCC(n2ncc(-c3ccccc3)c2Nc2cnccc2C(=O)O)C1 (stereo not drawn) | 4.00 to 5.00 |  |  | 4.00 to 5.00 |  |
| CN(C)CCN1CCCC(n2ncc(-c3ccccc3)c2Nc2cnccc2C(=O)O)C1 (stereo not drawn) | 5.00 to 6.00 |  |  | 4.00 to 5.00 |  |
| Cc1cnn(C2CCNCC2)c1Nc1cnccc1C(=O)O | 4.00 to 5.00 |  |  | 4.00 to 5.00 |  |
| CN(C)[C@H]1CC[C@@H](n2ncc(-c3ccccc3)c2Nc2cnccc2C(=O)O)CC1 (relative stereo) | 4.00 to 5.00 |  |  | 4.00 to 5.00 |  |
| Cc1nn(C2CCOCC2)cc1Nc1cnccc1C(=O)O | 5.00 to 6.00 |  |  | 6.00 to 7.00 | 7.00 to 9.00 |
| CNCCN1CCCC(n2ncc(-c3ccccc3)c2Nc2cnccc2C(=O)O)C1 (stereo not drawn) | 4.00 to 5.00 |  |  | 4.00 to 5.00 |  |
| C[C@@H]1CN(C)C[C@H]1n1ncc(-c2ccccc2)c1Nc1cnccc1C(=O)O (relative stereo) |  |  | < 4.00 | 4.00 to 5.00 |  |
| C[C@@H]1CNC[C@H]1n1ncc(-c2ccccc2)c1Nc1cnccc1C(=O)O (relative stereo) | 4.00 to 5.00 |  |  | 4.00 to 5.00 |  |
